Reference: US9453062B2, “Glucose dependent insulinotropic polypeptide analogs, pharmaceutical compositions and use thereof” (Beijing Hanmi Pharmaceutical Co., Ltd., priority 2011, dated 2016)

The chains behind the UniProt entries cited, without tags or fusion partners. Residues count along the entry.
UniProt P43220, 24-463: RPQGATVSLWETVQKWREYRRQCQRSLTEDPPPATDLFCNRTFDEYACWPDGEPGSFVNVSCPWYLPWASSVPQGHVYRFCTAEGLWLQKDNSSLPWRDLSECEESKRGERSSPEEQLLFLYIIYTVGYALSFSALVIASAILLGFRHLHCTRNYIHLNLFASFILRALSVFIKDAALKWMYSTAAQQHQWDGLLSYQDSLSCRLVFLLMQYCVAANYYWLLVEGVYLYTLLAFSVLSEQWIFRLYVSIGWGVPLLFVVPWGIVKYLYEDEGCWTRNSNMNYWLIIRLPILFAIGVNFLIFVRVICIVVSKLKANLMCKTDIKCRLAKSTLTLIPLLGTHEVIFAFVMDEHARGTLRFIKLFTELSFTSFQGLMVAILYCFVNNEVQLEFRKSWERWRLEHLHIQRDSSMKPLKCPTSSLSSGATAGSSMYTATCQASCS

Target: T1, hGLP-1R (Homo sapiens, UniProt P43220)
T1 construct: expressed in transfected cells; host or cells: CHO
Assay: hGLP-1R-mediated cAMP induction assay in CHO cell line;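 note: CHO cells expressing human GLP-1R, treated 30 min at 37 °C, intracellular cAMP measured by competitive fluorescent immunoassay and converted via a cAMP standard curve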
Type: cell-based
Details: Table 3; against native GLP-1

SMILES: CC[C@H](C)[C@H](NC(=O)[C@H](CO)NC(=O)[C@H](Cc1ccc(O)cc1)NC(=O)[C@H](CC(=O)O)NC(=O)[C@H](CO)NC(=O)[C@@H](NC(=O)[C@H](Cc1ccccc1)NC(=O)[C@@H](NC(=O)CNC(=O)[C@H](CCC(=O)O)NC(=O)C(C)(C)NC(=O)[C@@H](N)Cc1ccc(O)cc1)[C@@H](C)O)[C@@H](C)O)C(=O)N[C@@H](Cc1ccc(O)cc1)C(=O)N[C@@H](CCSC)C(=O)N[C@@H](CCC(=O)O)C(=O)N[C@@H](CCCCN)C(=O)N[C@@H](CCC(=O)O)C(=O)N[C@@H](C)C(=O)N[C@H](C(=O)N[C@@H](CCCNC(=N)N)C(=O)N[C@@H](CCC(=O)O)C(=O)N[C@@H](Cc1ccccc1)C(=O)N[C@H](C(=O)N[C@@H](CS)C(=O)N[C@@H](Cc1c[nH]c2ccccc12)C(=O)N[C@@H](CC(C)C)C(=O)N[C@H](C(=O)N[C@@H](CCCCN)C(=O)NCC(=O)NCC(=O)N1CCC[C@H]1C(=O)N[C@@H](CO)C(=O)N[C@@H](CO)C(=O)NCC(=O)N[C@@H](C)C(=O)N1CCC[C@H]1C(=O)N1CCC[C@H]1C(=O)N1CCC[C@H]1C(=O)N[C@@H](CO)C(=O)N[C@@H](CCCCN)C(N)=O)C(C)C)[C@@H](C)CC)C(C)C [Compound 105]
- GLP-1 Receptor Relative Potency: 11.7
